{"sequences": {"note": "Protein sequences, listed by entry. Tags and fused reporters are not part of them. Residues count along the entry.", "UniProt P08246, 30-267": "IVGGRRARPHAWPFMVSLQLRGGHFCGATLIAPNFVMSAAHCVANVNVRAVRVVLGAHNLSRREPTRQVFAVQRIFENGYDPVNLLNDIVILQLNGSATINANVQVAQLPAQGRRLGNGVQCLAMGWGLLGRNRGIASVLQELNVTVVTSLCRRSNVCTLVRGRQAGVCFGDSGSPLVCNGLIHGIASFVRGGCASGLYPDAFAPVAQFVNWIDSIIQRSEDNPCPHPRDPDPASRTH"}, "source": "patent US9174997B2", "about": "“4-(4-cyano-2-thioaryl)dihydropyrimidinones and use thereof” (Bayer Intellectual Property GmbH, priority 2007, dated 2015)", "molecular_target": "human neutrophil elastase (HNE) (Homo sapiens (Human), UniProt P08246)", "test": "In vitro HNE inhibition assay", "format": "biochemical", "conditions": "HNE concentration of 80 pM; substrate MeOSuc-Ala-Ala-Pro-Val-AMC; 37° C. for 2 hours", "procedure": "B-1. In Vitro HNE Inhibition Assay\nThe potency of the compounds of the invention is ascertained in an in vitro inhibition assay. The HNE-mediated amidolytic cleavage of a suitable peptide substrate leads in this connection to an increase in the fluorescent light. The signal intensity of the fluorescent light is directly proportional to the enzyme activity.\nEnzyme ([…]; from Serva, Heidelberg) and substrate (20 μM MeOSuc-Ala-Ala-Pro-Val-AMC; from Bachem, Weil am Rhein) are incubated in an assay volume of in total 50 μl of assay buffer (0.1 M HEPES pH 7.4, 0.5 M NaCl, 0.1% w/v BSA, 1% v/v DMSO) in a 384-well microtiter plate in the presence and absence of the test substance at 37° C. for 2 hours. […] The IC50 values are determined by plotting the intensity of the fluorescent light against the active substance concentration.", "note": "pIC50: −log10 of the molar value."}
{"smiles": "CS(=O)(=O)c1cc(C#N)ccc1C1NC(=O)N(c2cccc(C(F)(F)F)c2)C2=C1C(=O)N(CCNC(N)=O)C2", "note": "(racemic) [Example 50, (rac)-1-(2-{4-[4-Cyano-2-(methylsulfonyl)phenyl]-2,5-dioxo-1-[3-(trifluoromethyl)phenyl]-1,2,3,4,5,7-hexahydro-6H-pyrrolo[3,4-d]pyrimidin-6-yl}ethyl)urea]", "values": [{"measurement": "pIC50", "value": 8.80}]}
